Assay: Kinetic solubility of compound at pH 6.5 measured after 30 mins by nephelometry
Format: physicochemical
Settings: buffer, pH 6.5, 0.5 h

Work on Cc1nn(C2CC2)c(=O)c2nn(C)c(Cc3ccc(C(F)(F)F)c(C#N)c3)c12 yielded a Kinetic_solubility of under 15 µM.

From ChEMBL document CHEMBL6087456 (J Med Chem, 2025)
